Experimental findings from article PMC4990970 (2016) are described below.

The target of this assay is AtBAG5-long (Arabidopsis thaliana Bcl-2-associated athanogene 5, residues 49-153) (Arabidopsis thaliana, UniProt O65373 49-153). The experiment in a line: ITC; with Ca2+. (In general: In ITC the heat of successive injections is recorded.)

B1: ATPase domain of human Hsp70 (called Hsc70 in the results) (domain or fragment)
chain: not shown
One may read the Kd as the concentration at which binding is half-saturated. Higher therefore signals lower affinity. For the molecule B1, the Kd worked out at 17.9 µM.
